Measured values as given in article PMC2033546, “Effects of somatostatin analogue RC-160 and bombesin/gastrin-releasing peptide antagonists on the growth of human small-cell and non-small-cell lung carcinomas in nude mice” (British Journal of Cancer, 1994).

Legend:
[1] = Serum growth hormone (GH) radioimmunoassay in nude mice; format: in vivo; details: both experiments, after chronic treatment, vs controls
[2] = system: IGF-I receptors in membranes of non-SCLC H157 tumours; assay: IGF-I receptor binding on H157 tumour membranes after in vivo treatment; design: species or system human
[3] = system: non-SCLC cell line NCI-H157; assay: Growth of H157 non-SCLC xenografts in nude mice; format: in vivo, human (xenograft in male athymic nude mice); details: RC-160 100 µg/day, RC-3095 20 µg/day
[4] = Body weight of tumour-bearing nude mice; details: Table I, Experiment II (non-SCLC H157), end of experiment; control 26.5 ? 1.0; means ? s.d.
[5] = Serum gastrin radioimmunoassay in nude mice; format: in vivo; details: both experiments, after chronic treatment, vs controls
[6] = system: EGF receptors in membranes of non-SCLC H157 tumours; assay: EGF receptor binding on H157 tumour membranes after in vivo treatment; design: species or system human

[Ac-D-Nal(2)1, D-Phe(4CI)Y, i>Pal(3)3, ID-Cit', D-Alal?lLH-RH [SB-75]
Serum GH levels (in words) [1]: no changes in levels of GH and gastrin
IGF-I maximal binding capacity (Bmax) ([2]; Table IV, Experiment II (non-SCLC H157), tumour membranes after in vivo treatment, control 257, done once): 160 fmol mg' protein
IGF-I binding sites on H157 tumours (in words) ([2]; after in vivo treatment): No changes in IGF-I binding capacity and affinity
Growth of H157 non-SCLC tumours (in words) ([3]; 4 weeks s.c., SB-75 100 µg/day per animal, vs control): No significant reduction in final tumour volume, tumour weight and tumour growth
Tumour volume, final ([3]; Table I, Experiment II (non-SCLC H157), 4 weeks s.c. peritumoral, SB-75 100 µg/day per animal, control 1580.3 ? 455.7, means ? s.d., ten animals per group, *P<0.05 vs control): 1301.0 709.8 (mm)r
Tumour weight ([3]; Table I, Experiment II (non-SCLC H157), 4 weeks s.c., SB-75 100 µg/day, control 1.9 ? 0.3, means ? s.d., *P<0.05 vs control): 1.4 0.7 g
Tumour doubling time ([3]; Table I, Experiment II (non-SCLC H157), 4 weeks s.c., SB-75 100 µg/day, control 3.88): 4.0 days
Body weight [4]: 27.0 2.0 g
Serum gastrin levels (in words) [5]: no changes in levels of GH and gastrin
EGF maximal binding capacity (Bmax) ([6]; Table IV, Experiment II (non-SCLC H157), tumour membranes after in vivo treatment, control 249, done once): 192 fmol mg' protein
EGF binding capacity on H157 tumours (in words) ([6]; after in vivo treatment): not with bombesin/ GRP antagonist RC-3095 or LH-RH antagonist SB-75
